Measured values taken from patent publication US20220194997A1, “SUMO PEPTIDES FOR TREATING NEURODEGENERATIVE DISEASES” (The Chinese University of Hong Kong, priority 2019, published 2022).

Tests used:
Assay type in all cases: cell-based
SH-SY5Y cells [1] = assay: MTT cell viability assay, aged α-synuclein cytotoxicity
SH-SY5Y cells [2] = assay: MTT cell viability assay, aged NACore cytotoxicity
SH-SY5Y cells [3] = assay: MTT cell viability assay, peptide alone; settings: corresponding concentration, data not shown

SMILES: CC[C@H](C)[C@H](NC(=O)[C@H](Cc1ccc(O)cc1)NC(=O)[C@H](CCC(=O)O)NC(=O)CNC(=O)[C@H](CCC(=O)O)NC(=O)[C@H](CCCCN)NC(=O)[C@H](CCCCN)NC(=O)[C@@H](N)CC(=O)O)C(=O)N[C@@H](CCCCN)C(=O)N[C@@H](CC(C)C)C(=O)N[C@@H](CCCCN)C(=O)N[C@H](C(=O)N[C@H](C(=O)NCC(=O)N[C@@H](CCC(N)=O)C(=O)N[C@@H](CC(=O)O)C(=O)N[C@@H](CO)C(=O)N[C@@H](CO)C(=O)N[C@@H](CCC(=O)O)C(=O)N[C@H](C(=O)N[C@@H](Cc1c[nH]cn1)C(=O)N[C@@H](Cc1ccccc1)C(=O)N[C@@H](CCCCN)C(=O)N[C@H](C(=O)N[C@@H](CCCCN)C(=O)N[C@@H](CCSC)C(=O)N[C@H](C(=O)N[C@H](C(=O)N[C@@H](Cc1c[nH]cn1)C(=O)N[C@@H](CC(C)C)C(=O)N[C@@H](CCCCN)C(=O)N[C@@H](CCCCN)C(=O)N[C@@H](CC(C)C)C(=O)N[C@@H](CCCCN)C(=O)N[C@@H](CCC(=O)O)C(=O)N[C@@H](CO)C(=O)N[C@@H](Cc1ccc(O)cc1)C(=O)N[C@@H](CS)C(=O)N[C@@H](CCC(N)=O)C(=O)N[C@@H](CCCNC(=N)N)C(=O)N[C@@H](CCC(N)=O)C(=O)O)[C@@H](C)O)[C@@H](C)O)C(C)C)[C@@H](C)CC)[C@@H](C)CC)C(C)C [SUMO1(15-55)]
- rescue of cell viability from aged α-synuclein cytotoxicity (SH-SY5Y cells [1]; equimolar ratio): complete rescue
- rescue of cell viability from aged α-synuclein cytotoxicity (SH-SY5Y cells [1]; substoichiometric amounts): partial rescue
- rescue of cell viability from aged NACore cytotoxicity (SH-SY5Y cells [2]; equimolar ratio): complete rescue
- rescue of cell viability from aged NACore cytotoxicity (SH-SY5Y cells [2]; substoichiometric amounts): partial rescue
- cell viability with peptide alone (SH-SY5Y cells [3]): did not affect cell viability
